Test system: human breast-cancer-derived cell line BT474
Assay: Spheroid formation on NanoCulture plate observed by time-lapse microscope
Format: cell-based
Conditions: 0, 0.1, 1.0, 10 μg/mL, day zero to seventh day after medicine was added
Protocol: A human breast-cancer-derived cell line BT474 was suspended in a culture medium (NCM-M made by SCIVAX Co., Ltd.), and seeded on a NanoCulture (registered mark) plate (made by SCIVAX Co., Ltd., 96-well plate, material of concavo-convex structure surface: cyclic-olefin polymer (COP), planar shape of concavo-convex structure: regular hexagon, width between unit structures (line width): 700 nm, minimum internal diameter of unit structure: 3 μm, and depth: 1 μm) at 1×10^4 cells/well, and incubated at 37° C. and 5% CO2.
The effect of the medicine on the formation of spheroids in each concentration from the day zero to the seventh day after the medicine was added were observed through a time-lapse microscope, and the image pickup results are shown in FIG. 2.
Furthermore, the image of the change in the number of spheroids in each concentration from the day zero to the seventh day after the medicine was added was picked up using the time-lapse microscope, and the number of the spheroids was counted and taken as a relative value, and the results are shown in FIG. 4.

Substance: trastuzumab
- change in the number of spheroids: the number of the spheroids changes depending on the medicine concentration

Reference: patent publication US20130045500A1, “CELL EVALUATION METHOD” (NATIONAL CANCER CENTER, priority 2011, published 2013)
